According to PubChem BioAssay AID588855 (National Center for Advancing Translational Sciences (NCATS), 2011):
Only a part is listed here, and it is no random draw. Results filed as inconclusive are left out. Some salts or complexes appear as unconnected parts, following the source record. Calls of active or inactive are those of the source. The call rests on the fitted dose curve; in most records, active means well fitted inhibition curve with a large enough effect; inconclusive means small, poorly fitted or top-dose-only effect; inactive means no such curve, though single readings can be large or run the other way.

Experiment: qHTS for Inhibitors of TGF-b; further: nearly all actives have a fitted effect of over 65% in size
Conditions: HepG2 CAGA-GFP TGF-b/SMAD3 reporter, GFP fluorescence, 18 h, TGF-beta stimulated, 500 pg/mL final; at 46.1 µM (top of the series)
On the % scale 0 is the no-effect control and ±100 the full control effect.

| Compound | activity, negative = inhibition |
| --- | --- |
| O=C(NCC1(N2CCOCC2)CCCCC1)c1ccc([N+](=O)[O-])cc1 | inactive: 3.96% |
| CC(C)(C)OC(=O)N1CCC(N(C(=O)c2ccccc2)c2ccc(Cl)cc2)CC1 | inactive: 0% |
| N#Cc1ccc(C(=O)NCC2(N3CCCCC3)CCCCC2)cc1 | inactive: 22.6% |
| O=C(NCC1(N2CCOCC2)CCCCC1)c1ccccc1[N+](=O)[O-] | inactive: 8.54% |
| CCOC(=O)C(CC)C1=NC(C)(C)Cc2ccccc21.O=[N+]([O-])c1cc([N+](=O)[O-])c(O)c([N+](=O)[O-])c1 (stereo unspecified) | inactive: -0.835% |
| c1ccc(CN2CCC(Nc3ccccc3)CC2)cc1 | inactive: -7.35% |
| CCCN1CCC(Nc2cc(OC)cc(OC)c2)CC1 | inactive: -3.19% |
| O=C(NCC1(N2CCOCC2)CCCCC1)c1ccccc1 | inactive: 17.3% |
| CN(C)C1(CNC(=O)c2cccc(C#N)c2)CCCCC1 | inactive: 4.12% |
| O=C(NCC1(N2CCOCC2)CCCCC1)c1cc(Br)ccc1Cl | inactive: -2.1% |
| CCCCn1nnnc1C(c1ccccc1)N1CCC(n2c(=O)[nH]c3ccccc32)CC1 (stereo unspecified) | inactive: -37.8% |
| COc1cc(C(=O)NCC2(N3CCOCC3)CCCCC2)cc(OC)c1C | inactive: 2.48% |
| COc1ccc(C(=O)NCC2(N3CCOCC3)CCCCC2)cc1OC | inactive: -0.514% |
| O=Cc1ccc(N(CCCl)CCCl)cc1 | inactive: -7.69% |
| N/C(=N\O)c1c(N)no[n+]1[O-] | inactive: -23.8% |
| COc1cccc(C(c2nnnn2C(C)(C)C)N2CCC(n3c(=O)[nH]c4ccccc43)CC2)c1OC (stereo unspecified) | inactive: -29.8% |
| CCOC(=O)N1CCC(Nc2ccc(C)cc2)CC1 | inactive: -9.16% |
| O=C(OC1CN2CCC1CC2)C1c2ccccc2C=Cc2ccccc21 (stereo unspecified) | inactive: 1.46% |
| CCc1cc(C(=O)NCC2(N3CCCCC3)CCCCC2)sc1C | inactive: -23.1% |
| O=C(O)c1cccc(Nc2c([N+](=O)[O-])cc([N+](=O)[O-])cc2[N+](=O)[O-])c1 | inactive: -18.7% |
| CCOc1ncccc1C(=O)NCC1(N2CCOCC2)CCCCC1 | inactive: -1.52% |
| CN1CCC(Nc2ccc(F)c(Cl)c2)CC1 | inactive: 0.189% |

| Compound | activity, negative = inhibition |
| --- | --- |
| ClCCN(CCCl)c1ccccc1 | inactive: 13.9% |
| CCCOc1ccc(C(=O)NCC2(N(C)C)CCCCC2)cc1 | inactive: -4.6% |
| CC(C)(C)OC(=O)N1CCC(Nc2ccccc2)CC1 | inactive: -2.45% |
| O=C(O)C1(Nc2ccccc2)CCN(Cc2ccccc2)CC1 | inactive: -2.07% |
| ClCCN(CCCl)c1ccc(C=C2C=CC=C2)cc1 | inactive: -5.66% |
| CCC(CO)(C(=O)OC1CN2CCC1CC2)c1ccccc1 (stereo unspecified) | inactive: 4.5% |
| COc1cc(C(=O)NCC2(N3CCOCC3)CCCCC2)cc(OC)c1OC | inactive: 0.753% |
| COc1cc(OC)cc(C(=O)NCC2(N3CCOCC3)CCCCC2)c1 | inactive: 6.94% |
| COc1cccc(C(=O)N(c2cc(C)cc(C)c2)C2CCN(C(=O)OC(C)(C)C)CC2)c1 | inactive: 0% |
| CN1CCC(Nc2ccc(Cl)cc2)CC1 | inactive: 10.8% |
| COc1cc(OC)cc(C(=O)NCC2(N3CCCCC3)CCCCC2)c1 | inactive: -19.6% |
| CC(=O)N(c1ccccc1)C1CCNCC1 | inactive: -3.28% |
| CN(C)C1(CNC(=O)c2ccc(C(C)(C)C)cc2)CCCCC1 | inactive: 18.2% |
| CCC(c1nnnn1C1CCCCC1)N1CCC(n2c(=O)[nH]c3ccccc32)CC1 (stereo unspecified) | inactive: 7.12% |
| Cc1ccc(NC2(C#N)CCN(Cc3ccccc3)CC2)cc1 | inactive: -4.08% |
| Cc1ccc(C(=O)NCC2(N3CCCCC3)CCCCC2)o1 | inactive: 11.9% |
| Fc1ccccc1NC1CCN(Cc2ccccc2)CC1 | inactive: 2.34% |
| Cc1ccccc1NC1(C#N)CCN(Cc2ccccc2)CC1 | inactive: 0% |
| CC(C)(C)n1nnnc1C(c1ccnc2ccccc12)N1CCC(n2c(=O)[nH]c3ccccc32)CC1 (stereo unspecified) | inactive: -6.63% |
| COc1ccc(C(c2nnnn2C2CCCCC2)N2CCC(n3c(=O)[nH]c4ccccc43)CC2)cc1 (stereo unspecified) | inactive: -12.3% |
| CCN1CCC(Nc2cccc(F)c2)CC1 | inactive: 0% |
| CC(C)(C)c1ccc(C(=O)NCC2(N3CCOCC3)CCCCC2)cc1 | inactive: 25% |

| Compound | activity, negative = inhibition |
| --- | --- |
| O=C(NCC1(N2CCCCC2)CCCCC1)c1ccco1 | inactive: 11.4% |
| Cn1c(=O)[nH]cc(N(CCCl)CCCl)c1=O | inactive: 3.43% |
| CN(C)c1ccc(C(=O)NCC2(N3CCCCC3)CCCCC2)cc1 | inactive: -8.84% |
| Cc1ccccc1C(=O)NCC1(N(C)C)CCCCC1 | inactive: -1.78% |
| CCOc1ccc(C)cc1CN(CCCl)CCCl | inactive: 5.1% |
| CC(C)(C)n1nnnc1C(c1ccccc1)N1CCC(n2c(=O)[nH]c3ccccc32)CC1 (stereo unspecified) | inactive: -22.4% |
| O=C(NCC1(N2CCOCC2)CCCCC1)c1ccc(Cl)cc1 | inactive: -2.43% |
| O=C1CCN(Cc2ccccc2)CC1 | inactive: 25.2% |
| O=C(NCC1(N2CCCCC2)CCCCC1)c1ccc(F)cc1 | inactive: 0.0911% |
| O=P1(N(CCCl)CCCl)SCCCS1 | inactive: 8.02% |
| CCCCOc1ccc(C(=O)NCC2(N3CCOCC3)CCCCC2)cc1 | inactive: -15.5% |
| COc1ccc(NC2CCN(CCc3ccccc3)CC2)c(OC)c1 | inactive: 4.69% |
| CCOC(=O)N1CCC(Nc2ccc(F)cc2)CC1 | inactive: 8.53% |
| COc1ccccc1C(=O)NCC1(N2CCOCC2)CCCCC1 | inactive: -7.08% |
| COc1cc(C(=O)NCC2(N(C)C)CCCCC2)ccc1OC(F)F | inactive: 8.17% |
| CCOC(=O)N1CCC(Nc2cccc(C)c2)CC1 | inactive: -13.7% |
| O=C(NCC1(N2CCCCC2)CCCCC1)c1ccc(=O)[nH]c1 | inactive: 2.41% |
| CCCCn1nnnc1C(CC)N1CCC(n2c(=O)[nH]c3ccccc32)CC1 (stereo unspecified) | inactive: -2.76% |
| O=C(NCC1(N2CCCCC2)CCCCC1)c1cccs1 | inactive: 23.5% |
| COc1ccc(C(=O)NCC2(N3CCCCC3)CCCCC2)cc1 | inactive: -17.9% |
| CCC(c1nnnn1C1CCCC1)N1CCC(n2c(=O)[nH]c3ccccc32)CC1 (stereo unspecified) | inactive: -2.79% |
| COc1ccc(C(=O)NCC2(N3CCCCC3)CCCCC2)c(OC)c1OC | inactive: 2.44% |

| Compound | activity, negative = inhibition |
| --- | --- |
| CC(C)(C)OC(=O)N1CCC(N(C(=O)c2ccccc2)c2ccc(F)cc2)CC1 | inactive: -2.47% |
| CSc1ccccc1C(=O)NCC1(N2CCCCC2)CCCCC1 | inactive: 2.14% |
| Cc1cccc(NC2(C#N)CCN(Cc3ccccc3)CC2)c1 | inactive: 2.73% |
| O=c1[nH]c2ccccc2n1C1CCN(C(c2ccccc2OC(F)(F)F)c2nnnn2C2CCCCC2)CC1 (stereo unspecified) | inactive: -14% |
| O=C(NCC1(N2CCCCC2)CCCCC1)c1ccc(Cl)nc1 | inactive: 2.71% |
| CCOC(=O)N1CCC(Nc2ccc(OC)cc2)CC1 | inactive: -6.79% |
| O=C(OC1CN2CCC1CC2)C1c2ccccc2Oc2ccccc21 (stereo unspecified) | inactive: 9.05% |
| N#CC1(Nc2ccccc2)CCN(Cc2ccccc2)CC1 | inactive: -3.45% |
| O=C(NCC1(N2CCCCC2)CCCCC1)c1ccc(Cl)s1 | inactive: 1.13% |
| O=C1C(O)=C([N+](=O)[O-])C(=O)C(O)=C1[N+](=O)[O-] | inactive: 13% |
| COc1ccc(Cl)cc1C(=O)NCC1(N2CCOCC2)CCCCC1 | inactive: 14.2% |
| COc1ccc(CN(CCCl)CCCl)cc1Cl | inactive: 4.88% |
| O=[N+]([O-])c1cc([N+](=O)[O-])c(OC2CCCCC2O)c([N+](=O)[O-])c1 (stereo unspecified) | inactive: 1.98% |
| CN(C)c1cccc(C(=O)NCC2(N3CCCCC3)CCCCC2)c1 | inactive: -14.9% |
| CC(C)c1ccc(NC2CCN(C(=O)OC(C)(C)C)CC2)cc1 | inactive: -3.89% |
| CCCCn1nnnc1C(c1ccnc2ccccc12)N1CCC(n2c(=O)[nH]c3ccccc32)CC1 (stereo unspecified) | inactive: -27% |
| COc1cc(OC)c(C(=O)NCC2(N(C)C)CCCCC2)cc1OC | inactive: -2.2% |
| O=C(NCC1(N2CCOCC2)CCCCC1)c1cc(F)c(F)cc1Cl | inactive: -21.5% |
| CCC(c1nnnn1C(C)(C)C)N1CCC(n2c(=O)[nH]c3ccccc32)CC1 (stereo unspecified) | inactive: 0.674% |
| O=C(NCC1(N2CCCCC2)CCCCC1)c1cncc(Br)c1 | inactive: -4.76% |
| COc1ccc2c(c1O)-c1c(O)c(OC)cc3c1[C@H](C2)[N+](C)(C)CC3.O=[N+]([O-])c1cc([N+](=O)[O-])c([O-])c([N+](=O)[O-])c1[O-] | inactive: 8.81% |
| CN1CCC(Nc2cccc(F)c2)CC1 | inactive: -0.519% |

| Compound | activity, negative = inhibition |
| --- | --- |
| O=C(OC1CN2CCC1CC2)c1ccc([N+](=O)[O-])cc1 (stereo unspecified) | inactive: 1.62% |
| Cc1ccc(C(=O)NCC2(N(C)C)CCCCC2)o1 | inactive: -1.43% |
| CCCOc1ccc(C(=O)NCC2(N(C)C)CCCCC2)cc1OC | inactive: 3.9% |
| O=C(NCC1(N2CCOCC2)CCCCC1)c1ccccc1Br | inactive: 4.19% |
| COc1ccc(C(c2nnnn2C2CCCC2)N2CCC(n3c(=O)[nH]c4ccccc43)CC2)cc1 (stereo unspecified) | inactive: -23.2% |
| O=C(NCC1(N2CCCCC2)CCCCC1)c1ccc(OC(F)F)cc1 | inactive: 9.75% |
| CSc1ccc(C(=O)NCC2(N3CCOCC3)CCCCC2)cc1 | inactive: -0.454% |
| CCOc1ccc(C(=O)NCC2(N3CCOCC3)CCCCC2)cc1 | inactive: -0.578% |
| O=C(NCC1(N2CCCCC2)CCCCC1)c1cccc([N+](=O)[O-])c1 | inactive: 6.21% |
| CCN1CCC(Nc2ccc(Cl)cc2)CC1 | inactive: 0.138% |
| N#CC1(Nc2ccccc2)CCN(CCc2ccccc2)CC1 | inactive: 0.422% |
| CCCOc1cccc(C(=O)NCC2(N3CCOCC3)CCCCC2)c1 | inactive: -12.6% |
| O=C(NCC1(N2CCCCC2)CCCCC1)c1cccc(C(F)(F)F)c1 | inactive: -5.04% |
| CN1CCN(CCOC(=O)C(O)(c2ccccc2)c2ccccc2)CC1 | inactive: 5.7% |
| COc1ccc(NC2CCN(C(=O)OC(C)(C)C)CC2)cc1 | inactive: -7.3% |
| CC(C)c1ccc(C(=O)NCC2(N3CCOCC3)CCCCC2)cc1 | inactive: 12.9% |
| COc1cc(C(=O)NCC2(N3CCCCC3)CCCCC2)ccc1OC(F)F | inactive: 3.18% |
| O=C(NCC1(N2CCOCC2)CCCCC1)c1cc(=O)[nH]c2ccccc12 | inactive: -17.5% |
